Values quoted from earlier work as cited in PubChem BioAssay AID1811 (Shanghai Institute of Organic Chemistry, 2009).
The other results are listed elsewhere or left out. Activity calls are given as the source filed them. Unless stated, no cut-off for active and inactive is given here.

Test system: hiv-1 protease
Assay: PubChem AID 1811
Conditions: PDB complex binding affinities from literature

In the case of `O=C(N[C@H]1c2ccccc2C[C@H]1O)[C@H](Cc1ccccc1)CC(O)C[C@@H](Cc1ccccc1)C(=O)N[C@H]1c2ccccc2C[C@H]1O`, the outcome is given as “active”.
